{"source": "paper PMC13466294", "about": "“Nucleolaron1511 and Nucleolaron1510 Facilitate Effective Intracellular Delivery of Azami Green Protein in HeLa Cells” (International Journal of Molecular Sciences, 2026)", "origin": "cited, not measured here", "tested_on": "four cell lines", "conditions": "CPP fused to EGFP, across four cell lines; ref 45 (Patel et al.); cited from earlier work", "experimental": "To quantify intracellular delivery, flow cytometry was performed following a stringent surface-depletion protocol. Cells were washed with an acidic glycine-NaCl solution to disrupt electrostatic interactions between surface-bound AG–CPP and the plasma membrane, then treated with trypsin, which both detaches cells from the culture plate and cleaves CPP sequences at arginine and lysine residues—amino acids abundant in all constructs tested—thereby eliminating residual surface-associated fluorescence. This protocol ensures that the measured fluorescence predominantly reflects int ...", "data": [{"substance": "Transportan", "values": [{"measurement": "Uptake efficiency relative to TAT", "result": "approximately 2.4 fold"}]}]}
